System: alternative splicing of a specific gene (GFP/RFP reporter)
Assay: Compound screen with GFP/RFP alternative splicing reporter
Format: cell-based
Conditions: 5 µg/ml
Description: Strategy of a method for testing whether or not a compound to be tested affects an alternative splicing of a specific gene in a mammalian multicelluar organism is shown in FIG. 14.
The reporter proteins used for the method are GFP and FRP.

Cc1nc2n(c(=O)c1CCN1CCC(c3noc4cc(F)ccc34)CC1)CCCC2 [Risperidone]
cell count per well (c9; column head not printed in these continuation tables, meaning inferred): 3677

Reference: US9273364B2 (Kyoto University, priority 2010, dated 2016)
